# Earlier results in PMC6857671 (Chemical Science, 2019).
# Settings: pH 7.4, acid-labile MMCCH linker; cited from earlier work
substance,measurement,value
trastuzumab-MMCCH-DOX: DOX conjugated to trastuzumab via an acid-labile MMCCH linker (Zhang et al.),drug release rate at pH 7.4,25 % per day
